Usually IC50 stands for the concentration needed to halve the response being measured.

In assay [1] the target is T1, Phospholipase A2, membrane associated (Homo sapiens, UniProt P14555).
T1 sequence (P14555 whole entry): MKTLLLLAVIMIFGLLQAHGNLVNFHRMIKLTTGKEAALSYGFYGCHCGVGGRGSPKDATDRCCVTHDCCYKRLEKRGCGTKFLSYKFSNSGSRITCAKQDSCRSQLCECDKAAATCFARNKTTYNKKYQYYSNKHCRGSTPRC
In words: Inhibition of recombinant human sPLA2-2A expressed in Escherichia coli BL21(DE3) using 1-palmitoyl-2-oleoyl-sn-glycero-3-phosphocholine as substrate pretreated for 20 mins followed by substrate addition and measured after 60 mins.

Assay [2] concerns the target T2, Group 10 secretory phospholipase A2 (Homo sapiens, UniProt O15496).
T2 sequence (O15496 whole entry): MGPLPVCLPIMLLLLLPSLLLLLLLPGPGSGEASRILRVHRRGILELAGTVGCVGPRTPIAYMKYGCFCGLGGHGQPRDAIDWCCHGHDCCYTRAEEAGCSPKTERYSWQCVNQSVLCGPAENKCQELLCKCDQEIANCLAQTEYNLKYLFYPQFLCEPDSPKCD
In words: Inhibition of recombinant human sPLA2-10 expressed in Escherichia coli BL21(DE3) using HDL as substrate pretreated for 20 mins followed by substrate addition and measured after 60 mins.

For the molecule `CCc1c(C(=O)C(N)=O)c2c(OCC(=O)O)cccc2n1Cc1ccccc1` [VARESPLADIB], the figures for the IC50 in assay [1] and in assay [2] were 12 nM and 150 nM, respectively.

(Values after ChEMBL document CHEMBL4145659, “Discovery of a Series of Indole-2 Carboxamides as Selective Secreted Phospholipase A2 Type X (sPLA2-X) Inhibitors” (ACS Med Chem Lett, 2018).)
